# Yeast UUG start – alters start codon recognition fidelity in yeast; AID 602363; activity score, % at 18.7 µM; 350,000 tested, 0.13% active; S. cerevisiae UUG-firefly luciferase reporter, luminescence/redox ratio;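 active means replicate mean at a twofold rise or more, about +100% in these data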;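 further: firefly luciferase made from a UUG start codon reports start codon fidelity; reporter light over untreated wells divided by growth signal over untreated wells; some hits fall short of that in this replicate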
# DENV2 CPE – protects cells from dengue virus 2 cytopathic effect | AID 651640 | CPE inhibition, % at 9.99 µM | 1.7% of 350,000 active | DENV2-infected cells, cytopathic effect rescue, plate reader; in the data active = CPE inhibition above about 20%, passing the limit was not always enough; inconclusive = no clear call, values can overlap the other calls; tested in BHK-21 cells;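 also: 0% = median of neutral control wells and 100% = median of positive control wells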
# E-selectin induc – induces E-selectin expression in human endothelial cells | P16581 | HUVEC E-selectin immunofluorescence imaging; normalized: neutral wells 0, TNF-alpha wells 100 | activation, % at 7.58 µM | 0.37% of 260,000 active;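 active = mean E-selectin-positive cell signal at least 10% of the positive control, reached in at least 60% of replicates, without over 20% cell loss; inconclusive = no rule given, readout overlaps actives, possibly toxicity-flagged; inactive = the rest, including those meeting only one limit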
#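 Read-out basis: % PE-positive cells; Test system: HUVEC primary endothelial cells; Technique: immunofluorescence imaging; Dosing: single-point compound dose.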
# Cneo AK release – causes C. neoformans cell lysis | adenylate kinase release luminescence, 4 h; normalised: neutral wells 0, clomiphene wells 100 | lysis activity, % at 15 µM | 0.2% of 360,000 active | AID 651654;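 active = mean lysis activity across replicates of at least 80%, whatever share of replicates individually reach that level; inactive = mean lysis activity below 80%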
#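 Material: C. neoformans cells | Amount: Yeast cell density of 5 × 10^6 cells/mL | Medium: Fresh YPD growth medium | Dosing: Single dose | Times: Static 4 h at 37 °C with compound, 1 h detection | Detection: AK luminescence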
# Numbers without * were called inactive; ? = inconclusive; . = no result given. Compounds with a hit are over-represented: about 1.8% of the library has one in this group of screens.
# The first three compounds as a preview:
# Values run as follows: Cneo AK release	E-selectin induc	DENV2 CPE	Yeast UUG start
> C[C@@H]1CCCCO[C@@H](CN(C)C(=O)C2CCCCC2)[C@@H](C)CN([C@@H](C)CO)C(=O)c2cc(NC(=O)c3ccccc3)ccc2O1
 : 1.9	0.1	-3.1	10.6
> C[C@@H]1CN([C@H](C)CO)C(=O)c2cc(NC(=O)NC3CCCCC3)ccc2O[C@@H](C)CCCCO[C@H]1CN(C)C(=O)Nc1ccc2c(c1)OCO2
 : -5.8	0.1	100.9*	0.8
> C[C@@H]1CCCCO[C@@H](CN(C)C(=O)Nc2ccc3c(c2)OCO3)[C@H](C)CN([C@@H](C)CO)C(=O)c2cc(NC(=O)NC3CCCCC3)ccc2O1
 : -8.0	-0.3	-8.8	-10.6

# Results, repeating the preview:
# Values run as follows: Cneo AK release	E-selectin induc	DENV2 CPE	Yeast UUG start
> C[C@@H]1CCCCO[C@@H](CN(C)C(=O)C2CCCCC2)[C@@H](C)CN([C@@H](C)CO)C(=O)c2cc(NC(=O)c3ccccc3)ccc2O1
 : 1.9	0.1	-3.1	10.6
> C[C@@H]1CN([C@H](C)CO)C(=O)c2cc(NC(=O)NC3CCCCC3)ccc2O[C@@H](C)CCCCO[C@H]1CN(C)C(=O)Nc1ccc2c(c1)OCO2
 : -5.8	0.1	100.9*	0.8
> C[C@@H]1CCCCO[C@@H](CN(C)C(=O)Nc2ccc3c(c2)OCO3)[C@H](C)CN([C@@H](C)CO)C(=O)c2cc(NC(=O)NC3CCCCC3)ccc2O1
 : -8.0	-0.3	-8.8	-10.6
> C[C@H]1CCCCO[C@@H](CN(C)C(=O)Nc2ccc3c(c2)OCO3)[C@@H](C)CN([C@@H](C)CO)C(=O)c2cc(NC(=O)NC3CCCCC3)ccc2O1
 : -15.4	-0.1	48.1*	-4.5
> CC(=O)OCO/N=[N+](\[O-])N1CCCC1
 : -5.0	.	24.2*	-3.7
> Cc1ccccc1CN1CCN(CC(=O)NC(C)c2ccccc2)CC1 (stereo not given)
 : 0.9	.	27.2*	-5.1
> CC(NC(=O)CN1CCOCC1)c1ccccc1 (stereo not given)
 : 1.0	.	2.9	-15.0
> CC(NC(=O)CN1CCCC1)c1ccccc1 (stereo not given)
 : 0.1	.	23.6*	-8.7
> C[C@H]1CN([C@@H](C)CO)C(=O)c2cc(NC(=O)Cn3cnnn3)ccc2O[C@H]1CN(C)S(=O)(=O)c1cn(C)cn1
 : -5.6	0.2	-2.8	-10.0
> COCC(=O)Nc1ccc2c(c1)C(=O)N(C)C[C@@H](OC)[C@H](C)CN(Cc1ccccc1C(=O)O)[C@H](C)CO2
 : -0.4	-0.2	4.7	-9.5
> CCOc1ccc(C(=O)N2CCN(S(=O)(=O)c3cccs3)CC2)c(OCC)c1
 : 2.3	32.7*	-3.4	-8.6
> Cc1noc(C)c1NC(=O)Nc1ccc2c(c1)C(=O)N([C@H](C)CO)C[C@H](C)[C@@H](CN(C)Cc1ccc(Oc3ccccc3)cc1)O2
 : 1.2	1.3	-3.0	0.9
> COc1ccc(CN(C)C[C@@H]2Oc3ccc(NC(=O)Nc4c(C)noc4C)cc3CC(=O)N([C@H](C)CO)C[C@@H]2C)cc1
 : .	-19.2	40.8*	.
> COc1ccc(CN(C)C[C@H]2Oc3ccc(NC(=O)Nc4c(C)noc4C)cc3C(=O)N([C@@H](C)CO)C[C@H]2C)cc1
 : -3.1	239.1*	12.2	-20.5
> O=C(C[C@H]1CC[C@H]2[C@@H](COC[C@H](O)CN2CCc2ccccc2)O1)NCc1ccccc1
 : 2.4	0.0	2.3	-11.2
> CN1CCN(C(=O)C[C@H]2C[C@H]3c4cc(NS(=O)(=O)c5ccc(F)cc5)ccc4O[C@H]3[C@H](CO)O2)CC1
 : -4.2	-0.3	4.7	6.5
> CN(C)c1ccc(/C=C/C=N/Nc2nc(N3CCOCC3)nc(N3CCOCC3)n2)cc1
 : 4.4	63.0*	2.4	-13.6
> Cc1ccc(/C=N/Nc2nc(N3CCOCC3)nc(N3CCOCC3)n2)o1
 : .	0.0	-3.9	.
> COc1cccc(Oc2nc(N)ncc2[N+](=O)[O-])c1
 : .	28.8*	-0.5	.
> COc1ccc2c3c(n(C)c2c1)[C@@H](CO)NCC31CCN(Cc2ccccc2Cl)CC1
 : .	0.0	1.0	.
> CC1CCOC(c2coc3ccccc3c2=O)O1 (stereo not given)
 : -2.5	.	33.3*	-12.2
> C[C@@H]1CN([C@@H](C)CO)C(=O)c2cc(NC(=O)NC3CCCCC3)ccc2O[C@@H]1CN(C)CC1CCCCC1
 : 0.1	.	60.5*	3.0
> C[C@@H]1CN([C@H](C)CO)C(=O)c2cc(NC(=O)NC3CCCCC3)ccc2O[C@H]1CN(C)CC1CCCCC1
 : -3.0	.	-16.6	-3.7
> C[C@@H]1CN([C@@H](C)CO)C(=O)c2cc(NC(=O)C3CC3)ccc2O[C@H]1CN(C)CC1CCCCC1
 : 100.0*	-0.2	3.3	17.2
> C[C@H](CO)N1C[C@H](C)[C@H](CN(C)CC2CCCCC2)Oc2ccc(NC(=O)NC3CCCCC3)cc2C1=O
 : 1.4	.	29.1*	-4.9
> C[C@@H]1CN([C@H](C)CO)C(=O)c2cc(NC(=O)C3CC3)ccc2O[C@@H]1CN(C)CC1CCCCC1
 : 6.7	-0.3	11.4	0.1
> O=C(C[C@H]1CC[C@@H](NC(=O)Nc2ccc3c(c2)OCO3)[C@@H](CO)O1)NCc1ccc(F)cc1
 : 3.7	0.1	-9.7	-12.2
> OC[C@@H]1CC[C@@H]2O[C@H](CCc3ccc(-c4ccccc4)cc3)[C@H](n3cc(-c4ccccc4)nn3)C[C@@H]2O1
 : .	.	-2.6	.
> C[C@H](CO)N1C[C@H](C)[C@H](CN(C)Cc2ccc3c(c2)OCO3)Oc2ccc(NC(=O)Nc3cccc4ccccc34)cc2CC1=O
 : 50.2	.	?	12.2
